Biological target: Protein farnesyltransferase (Homo sapiens, UniProt P49354+P49356)
Experiment: Inhibitory activity against farnesyltransferase quantified by SPA assay
Type: protein-complex assay

IC50: 12 nM
SMILES: CCCCC(=O)N1CCN(C2c3ccc(Cl)cc3CCc3cc(Br)cnc32)CC1C(=O)NCCc1c[nH]cn1 (stereo unspecified)
